Test system: transformants to which the gFBA gene was introduced
Details: liquid fertilizers at same concentrations in terms of S amount

Compound | effect of increasing the seed weight (saturation)
N[C@@H](CCC(=O)N[C@@H](CS)C(=O)NCC(=O)O)C(=O)O [GSH, reduced glutathione] | not saturated at tested concentrations
N.N.O=S(=O)(O)O [ammonium sulfate, reference compound] | saturated at a value similar to that of the effect of ammonium nitrate
